Only a part is listed here, and it is no random draw. Results filed as inconclusive are left out. Activity calls are given as the source filed them. Rule as the data show it: inconclusive = inhibition above about 70% without an active follow-up result; inactive = below that.

The experiment can be described thus: M. tuberculosis growth inhibition, HTS (AID 449762).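 Also: bacterial growth assessed after seven days of incubation.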 The note with it: M. tuberculosis H37Rv growth inhibition, 7H9 media; at 25 µM; stronger effect = higher value.
Consider `CCC(=O)N(c1ccccc1)C1(COC)CCN(CCn2nnn(CC)c2=O)CC1`, for which the inhibition is inactive: -2.84%.

For the compound `CCC(=O)N(c1ccccc1)C1(COC)CCN(CCc2cccs2)CC1`, the inhibition was inactive: 0.87%.

The values above are taken from PubChem BioAssay AID449762 (Southern Research Specialized Biocontainment Screening …, 2010).
